Experimental data taken from ChEMBL document CHEMBL4325836, “Novel tacrine-pyridinium hybrid reactivators of organophosphorus-inhibited acetylcholinesterase: Synthesis, molecular docking, and in vitro reactivation study” (2018).

Chains of the proteins cited; added tags and fusions are not shown. Residues count along the entry.
UniProt O42275, 24-633 limits assumed: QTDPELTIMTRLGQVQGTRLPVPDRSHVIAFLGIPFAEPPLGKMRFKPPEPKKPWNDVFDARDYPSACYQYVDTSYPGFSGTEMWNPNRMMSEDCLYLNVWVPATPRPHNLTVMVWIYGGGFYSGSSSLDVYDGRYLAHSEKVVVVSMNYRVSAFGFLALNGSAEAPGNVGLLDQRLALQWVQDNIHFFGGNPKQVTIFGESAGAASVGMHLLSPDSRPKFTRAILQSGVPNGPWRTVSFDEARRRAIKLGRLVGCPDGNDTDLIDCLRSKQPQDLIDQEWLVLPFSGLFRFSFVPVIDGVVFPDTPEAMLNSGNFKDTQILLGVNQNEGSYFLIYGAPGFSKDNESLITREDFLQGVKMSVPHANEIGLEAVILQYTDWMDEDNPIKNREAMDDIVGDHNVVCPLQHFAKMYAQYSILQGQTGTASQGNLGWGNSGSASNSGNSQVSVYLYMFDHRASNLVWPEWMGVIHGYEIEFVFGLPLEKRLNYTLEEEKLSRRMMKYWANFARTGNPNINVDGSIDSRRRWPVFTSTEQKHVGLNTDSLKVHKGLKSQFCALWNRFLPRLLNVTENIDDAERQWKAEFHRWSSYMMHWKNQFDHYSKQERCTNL

What was measured:
[1] = target: T1, Acetylcholinesterase (Electrophorus electricus, UniProt O42275); test: Inhibition of electric eel AChE assessed as remaining enzyme activity at 100 to 1000 uM using acetylthiocholine iodide as substrate preincubated for 30 mins followed by substrate addition and measured every 3 mins for 15 mins; settings: 0.25 h
[2] = target: T1, Acetylcholinesterase; test: Inhibition of electric eel AChE assessed as remaining enzyme activity at 1 uM using acetylthiocholine iodide as substrate preincubated for 30 mins followed by substrate addition and measured every 3 mins for 15 mins relative to control; settings: 0.25 h

Row | SMILES | inhibition (INH) [1] | Activity [2]
1 | O/N=C/c1cc[n+](CCCCCCNc2c3c(nc4ccccc24)CCCC3)cc1.[Br-] | Active | 
2 | C[n+]1ccccc1/C=N/O.[Cl-] |  | 95%
3 | O/N=C/c1cc[n+](CCCCCCCNc2c3c(nc4ccccc24)CCCC3)cc1.[Br-] | Active | 
4 | O/N=C/c1cc[n+](CCCCCNc2c3c(nc4ccccc24)CCCC3)cc1.[Br-] | Active | 
5 | O/N=C/c1cc[n+](CCNc2c3c(nc4ccccc24)CCCC3)cc1.[Br-] | Active | 95%
6 | O/N=C/c1cc[n+](CCCNc2c3c(nc4ccccc24)CCCC3)cc1.[Br-] | Active | 92%
7 | Cl.NC(=O)c1cc[n+](COCN2C=CC=CC2=CN=O)cc1.[Cl-] |  | 95%
8 | O/N=C/c1cc[n+](CCCCNc2c3c(nc4ccccc24)CCCC3)cc1.[Br-] | Active | 90%
